pEC50, pIC50: −log10 of the molar value.
Tests used:
[1] = molecular target: human recombinant 5-HT2Cedited receptor (Homo sapiens, UniProt P28335, I156V/N158S/I160V); test: Serotonin 5-HT2C in vitro cellular IPOne agonism assay; conditions: read-out: 5HT2C IPOne Agonism Activity; CHO-K1 cells, IPOne HTRF, agonist mode
[2] = molecular target: 5-HT2Cedited (accession number AAF35842.1) (Homo sapiens, UniProt P28335, I156V/N158S/I160V); test: Serotonin 5-HT2C in vitro radioligand binding competition assay ([3H]-DOI); conditions: read-out: 5HT2C Radioligand Binding Activity; [3H]-DOI competition, membrane extracts
[3] = molecular target: human recombinant 5-HT2C receptor (Homo sapiens, UniProt P28335, I156V/I160V/N158S); test: Serotonin 5-HT2C in vitro cellular IPOne antagonism assay; conditions: read-out: 5HT2C IPOne Antagonism Activity; CHO-K1 cells, IPOne HTRF, reference agonist a-Me-5HT

The chains behind the UniProt entries cited, without tags or fusion partners. Residues count along the entry.
UniProt P28335, whole entry I156V/N158S/I160V, looked up: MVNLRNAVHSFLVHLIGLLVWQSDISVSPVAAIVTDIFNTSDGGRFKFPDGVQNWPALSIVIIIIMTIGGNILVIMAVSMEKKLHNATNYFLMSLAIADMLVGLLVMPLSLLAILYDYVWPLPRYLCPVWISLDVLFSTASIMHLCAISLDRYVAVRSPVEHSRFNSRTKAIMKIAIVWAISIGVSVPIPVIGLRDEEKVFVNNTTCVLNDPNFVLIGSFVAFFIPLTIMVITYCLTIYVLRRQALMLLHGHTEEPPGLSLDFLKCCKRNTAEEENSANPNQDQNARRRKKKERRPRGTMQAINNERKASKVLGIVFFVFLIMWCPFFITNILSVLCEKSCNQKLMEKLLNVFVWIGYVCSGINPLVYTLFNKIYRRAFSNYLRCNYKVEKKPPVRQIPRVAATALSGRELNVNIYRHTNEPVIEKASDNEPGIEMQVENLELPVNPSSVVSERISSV
UniProt P28335, 33-458 I156V/N158S/I160V limits assumed: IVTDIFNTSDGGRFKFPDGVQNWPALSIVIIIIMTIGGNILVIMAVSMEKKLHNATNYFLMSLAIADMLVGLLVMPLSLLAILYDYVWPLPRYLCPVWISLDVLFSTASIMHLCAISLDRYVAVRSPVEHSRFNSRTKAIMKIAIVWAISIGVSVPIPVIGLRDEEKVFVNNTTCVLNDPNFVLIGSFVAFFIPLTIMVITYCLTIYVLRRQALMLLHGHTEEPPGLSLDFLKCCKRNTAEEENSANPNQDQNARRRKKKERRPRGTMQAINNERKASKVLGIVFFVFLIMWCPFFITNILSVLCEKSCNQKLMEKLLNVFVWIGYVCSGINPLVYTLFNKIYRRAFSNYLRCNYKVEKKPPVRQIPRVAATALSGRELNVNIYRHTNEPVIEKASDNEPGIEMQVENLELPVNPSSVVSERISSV

SMILES | pEC50 [1] | pIC50 [2] | pIC50 [3]
Fc1ccc2c(ccn2C2CCNC2)c1F (stereo not drawn) [Compound 15, 4,5-Difluoro-1-(pyrrolidin-3-yl)-1H-indole] | 7.00 to 8.00 | 7.00 to 8.00 | 
Cc1cn(C2CNC2)c2ccc(F)cc12 [Compound 1, 1-(azetidin-3-yl)-5-fluoro-3-methyl-1H-indole] | 6.00 to 7.00 |  | 
CN1CCC(n2ccc3c(F)c(F)ccc32)CC1 [Compound 10, 4,5-difluoro-1-(1-methylpiperidin-4-yl)-1H-indole] | 6.00 to 7.00 |  | 
COCCN1CCC(n2ccc3c(F)c(F)ccc32)C1 (stereo not drawn) [Compound 23, 4,5-Difluoro-1-(1-(2-methoxyethyl)pyrrolidin-3-yl)-1H-indole] | 6.00 to 7.00 | 5.00 to 6.00 | < 5.00
Cc1ccc2c(ccn2C2CN(C)C2)c1 [Compound 35, 5-methyl-1-(1-methylazetidin-3-yl)-1H-indole] | < 5.00 | 6.00 to 7.00 | 5.00 to 6.00
CC(C)N1CCC(n2ccc3c(F)c(F)ccc32)C1 (stereo not drawn) [Compound 19, 4,5-difluoro-1-(1-isopropylpyrrolidin-3-yl)-1H-indole] | 5.00 to 6.00 | 5.00 to 6.00 | 
CN1CC(n2ccc3cc(F)ccc32)C1 [Compound 30, 5-fluoro-1-(1-methylazetidin-3-yl)-1H-indole] | 5.00 to 6.00 |  | < 5.00
Fc1ccc2ccn(C3CNC3)c2c1 [Compound 28, 1-(azetidin-3-yl)-6-fluoro-1H-indole] | 6.00 to 7.00 | 7.00 to 8.00 | < 5.00
COCCN1CCC(n2cc(C)c3cc(F)ccc32)C1 (stereo not drawn) [Compound 22, 5-Fluoro-1-(1-(2-methoxyethyl)pyrrolidin-3-yl)-3-methyl-1H-indole] | 5.00 to 6.00 | 5.00 to 6.00 | 
CN1CC(n2ccc3cc(Cl)ccc32)C1 [Compound 36, 5-chloro-1-(1-methylazetidin-3-yl)-1H-indole] | < 5.00 | < 5.00 | < 5.00
CN1CC(n2ccc3c(F)cccc32)C1 [Compound 32, 4-fluoro-1-(1-methylazetidin-3-yl)-1H-indole] | 6.00 to 7.00 | 7.00 to 8.00 | < 5.00
Clc1ccc2c(ccn2C2CNC2)c1 [Compound 24, 1-(azetidin-3-yl)-5-chloro-1H-indole] | 5.00 to 6.00 |  | < 5.00
COc1ccc2c(ccn2C2CN(C)C2)c1 [Compound 31, 5-methoxy-1-(1-methylazetidin-3-yl)-1H-indole] | < 5.00 | 5.00 to 6.00 | < 5.00
Fc1ccc2c(ccn2C2CCN(C3COC3)C2)c1F (stereo not drawn) [Compound 21, 4,5-difluoro-1-(1-(oxetan-3-yl)pyrrolidin-3-yl)-1H-indole] | < 5.00 | < 5.00 | 
CCN1CCC(n2ccc3c(F)c(F)ccc32)C1 (stereo not drawn) [Compound 17, 1-(1-ethylpyrrolidin-3-yl)-4,5-difluoro-1H-indole] | 6.00 to 7.00 | 6.00 to 7.00 | < 5.00
Cc1cn(C2CN(C)C2)c2ccc(F)cc12 [Compound 5, 5-fluoro-3-methyl-1-(1-methylazetidin-3-yl)-1H-indole] | 6.00 to 7.00 |  | 
CN1CC(n2ccc3cc(C#N)ccc32)C1 [Compound 37, 1-(1-methylazetidin-3-yl)-1H-indole-5-carbonitrile] | < 5.00 | < 5.00 | < 5.00
Cc1cn(C2CCN(C)C2)c2ccc(OC3COC3)cc12 (stereo not drawn) [Compound 13, 3-Methyl-1-(1-methylpyrrolidin-3-yl)-5-(oxetan-3-yloxy)-1H-indole] | 5.00 to 6.00 | 5.00 to 6.00 | 

SMILES | pEC50 [1] | pIC50 [2] | pIC50 [3]
CCN1CCC(n2cc(C)c3cc(F)ccc32)C1 (stereo not drawn) [Compound 16, 1-(1-Ethylpyrrolidin-3-yl)-5-fluoro-3-methyl-1H-indole] | 6.00 to 7.00 | 6.00 to 7.00 | 
Cc1cn(C2CCNCC2)c2ccc(F)cc12 [Compound 3, 5-fluoro-3-methyl-1-(piperidin-4-yl)-1H-indole] | 6.00 to 7.00 |  | 
N#Cc1ccc2c(ccn2C2CNC2)c1 [Compound 25, 1-(azetidin-3-yl)-1H-indole-5-carbonitrile] | < 5.00 | < 5.00 | < 5.00
Cc1cn(C2CCN(C(C)C)C2)c2ccc(F)cc12 (stereo not drawn) [Compound 18, 5-fluoro-1-(1-isopropylpyrrolidin-3-yl)-3-methyl-1H-indole] | < 5.00 | 5.00 to 6.00 | 
Fc1ccc2c(ccn2C2CNC2)c1F [Compound 2, 1-(azetidin-3-yl)-4,5-difluoro-1H-indole] | 6.00 to 7.00 |  | 
Fc1ccc2c(ccn2C2CNC2)c1 [Compound 27, 1-(azetidin-3-yl)-5-fluoro-1H-indole] | 6.00 to 7.00 |  | < 5.00
Fc1ccc2c(ccn2C2CCNCC2)c1F [Compound 4, 4,5-difluoro-1-(piperidin-4-yl)-1H-indole] | 6.00 to 7.00 |  | 
Cc1cn(C2CCN(C3COC3)C2)c2ccc(F)cc12 (stereo not drawn) [Compound 20, 5-fluoro-3-methyl-1-(1-(oxetan-3-yl)pyrrolidin-3-yl)-1H-indole] | < 5.00 | < 5.00 | 
CN1CC(n2ccc3cccc(F)c32)C1 [Compound 34, 7-fluoro-1-(1-methylazetidin-3-yl)-1H-indole] | 6.00 to 7.00 | 7.00 to 8.00 | < 5.00
Fc1cccc2ccn(C3CNC3)c12 [Compound 26, 1-(azetidin-3-yl)-7-fluoro-1H-indole] | 6.00 to 7.00 | 6.00 to 7.00 | < 5.00
CN1CCC(n2ccc3c(F)c(F)ccc32)C1 (stereo not drawn) [Compound 8, 4,5-difluoro-1-(1-methylpyrrolidin-3-yl)-1H-indole] | 7.00 to 8.00 |  | 
Cc1cn(C2CCN(C)C2)c2ccc(F)cc12 (stereo not drawn) [Compound 7, 5-Fluoro-3-methyl-1-(1-methylpyrrolidin-3-yl)-1H-indole] | 6.00 to 7.00 | 6.00 to 7.00 | 
CN1CCC(n2cc(-c3ccccc3)c3cc(F)ccc32)C1 (stereo not drawn) [Compound 12, 5-fluoro-1-(1-methylpyrrolidin-3-yl)-3-phenyl-1H-indole] | < 5.00 | 6.00 to 7.00 | 5.00 to 6.00
CN1CC(n2ccc3ccc(F)cc32)C1 [Compound 33, 6-fluoro-1-(1-methylazetidin-3-yl)-1H-indole] | 6.00 to 7.00 |  | < 5.00
CC(C)c1cn(C2CCN(C)C2)c2ccc(F)cc12 (stereo not drawn) [Compound 11, 5-fluoro-3-isopropyl-1-(1-methylpyrrolidin-3-yl)-1H-indole] | < 5.00 |  | 
CN1CC(n2ccc3c(F)c(F)ccc32)C1 [Compound 6, 4,5-Difluoro-1-(1-methylazetidin-3-yl)-1H-indole] | 6.00 to 7.00 |  | 
COc1ccc2c(ccn2C2CNC2)c1 [Compound 29, 1-(azetidin-3-yl)-5-methoxy-1H-indole] | < 5.00 | 5.00 to 6.00 | < 5.00
Cc1cn(C2CCN(C)CC2)c2ccc(F)cc12 [Compound 9, 5-fluoro-3-methyl-1-(1-methylpiperidin-4-yl)-1H-indole] | 6.00 to 7.00 |  | 
